## Membrane permeability of cyclic peptides

Data: CycPeptMPDB; original report Kelly et al. 2021, doi:10.1021/jacs.0c06115.

PAMPA measures passive passage through an artificial lipid membrane.
Permeability is in 10^-6 cm/s, converted from the database's log10 values; higher is more permeable.

compound,PAMPA (10^-6 cm/s)
CC(=O)N1CCC[C@H]1C(=O)N(C)[C@H](CC(C)C)C(=O)N[C@@H]1C(=O)N[C@H](CC(C)C)C(=O)N[C@@H](CC(C)C)C(=O)N[C@@H](CC(C)C)C(=O)N(C)[C@@H](C)C(=O)N[C@@H](CC(C)C)C(=O)N2CCC[C@H]2C(=O)O[C@@H]1C,1.3
CC(=O)N1CCC[C@@H]1C(=O)N(C)[C@H](CC(C)C)C(=O)N[C@@H]1C(=O)N(C)[C@@H](CC(C)C)C(=O)N[C@@H](CC(C)C)C(=O)N(C)[C@@H](CC(C)C)C(=O)N[C@@H](C)C(=O)N[C@H](CC(C)C)C(=O)N2CCC[C@@H]2C(=O)O[C@@H]1C,0.23
CC(=O)N1CCC[C@H]1C(=O)N(C)[C@@H](CC(C)C)C(=O)N[C@@H]1C(=O)N[C@H](CC(C)C)C(=O)N[C@@H](CC(C)C)C(=O)N(C)[C@H](CC(C)C)C(=O)N(C)[C@@H](C)C(=O)N[C@@H](CC(C)C)C(=O)N2CCC[C@H]2C(=O)O[C@@H]1C,4.1
CC(=O)N1CCC[C@H]1C(=O)N(C)[C@H](CC(C)C)C(=O)N[C@@H]1C(=O)N[C@H](CC(C)C)C(=O)N[C@H](CC(C)C)C(=O)N[C@H](CC(C)C)C(=O)N(C)[C@@H](C)C(=O)N[C@H](CC(C)C)C(=O)N2CCC[C@@H]2C(=O)O[C@@H]1C,0.98
CC(=O)N1CCC[C@@H]1C(=O)N(C)[C@H](CC(C)C)C(=O)N[C@@H]1C(=O)N[C@@H](CC(C)C)C(=O)N[C@@H](CC(C)C)C(=O)N[C@H](CC(C)C)C(=O)N(C)[C@H](C)C(=O)N[C@H](CC(C)C)C(=O)N2CCC[C@H]2C(=O)O[C@@H]1C,0.46
CC(=O)N1CCC[C@H]1C(=O)N(C)[C@@H](CC(C)C)C(=O)N[C@@H]1C(=O)N(C)[C@H](CC(C)C)C(=O)N(C)[C@@H](CC(C)C)C(=O)N(C)[C@@H](CC(C)C)C(=O)N[C@@H](C)C(=O)N[C@H](CC(C)C)C(=O)N2CCC[C@H]2C(=O)O[C@@H]1C,9.8
CC(=O)N1CCC[C@H]1C(=O)N(C)[C@H](CC(C)C)C(=O)N[C@@H]1C(=O)N[C@H](CC(C)C)C(=O)N(C)[C@@H](CC(C)C)C(=O)N(C)[C@H](CC(C)C)C(=O)N(C)[C@H](C)C(=O)N[C@H](CC(C)C)C(=O)N2CCC[C@H]2C(=O)O[C@@H]1C,5
CC(=O)N1CCC[C@@H]1C(=O)N(C)[C@@H](CC(C)C)C(=O)N[C@@H]1C(=O)N[C@H](CC(C)C)C(=O)N(C)[C@H](CC(C)C)C(=O)N[C@H](CC(C)C)C(=O)N(C)[C@H](C)C(=O)N[C@H](CC(C)C)C(=O)N2CCC[C@@H]2C(=O)O[C@@H]1C,1.7
CC(=O)N1CCC[C@H]1C(=O)N(C)[C@H](CC(C)C)C(=O)N[C@@H]1C(=O)N[C@@H](CC(C)C)C(=O)N[C@@H](CC(C)C)C(=O)N[C@H](CC(C)C)C(=O)N[C@@H](C)C(=O)N[C@@H](CC(C)C)C(=O)N2CCC[C@H]2C(=O)O[C@@H]1C,0.45
CC(=O)N1CCC[C@@H]1C(=O)N(C)[C@H](CC(C)C)C(=O)N[C@@H]1C(=O)N[C@H](CC(C)C)C(=O)N[C@H](CC(C)C)C(=O)N[C@@H](CC(C)C)C(=O)N(C)[C@@H](C)C(=O)N[C@@H](CC(C)C)C(=O)N2CCC[C@H]2C(=O)O[C@@H]1C,0.058
CC(=O)N1CCC[C@@H]1C(=O)N(C)[C@H](CC(C)C)C(=O)N[C@@H]1C(=O)N[C@H](CC(C)C)C(=O)N[C@H](CC(C)C)C(=O)N[C@H](CC(C)C)C(=O)N[C@H](C)C(=O)N[C@H](CC(C)C)C(=O)N2CCC[C@H]2C(=O)O[C@@H]1C,0.36
CC(=O)N1CCC[C@H]1C(=O)N(C)[C@@H](CC(C)C)C(=O)N[C@@H]1C(=O)N(C)[C@H](CC(C)C)C(=O)N[C@H](CC(C)C)C(=O)N[C@H](CC(C)C)C(=O)N[C@@H](C)C(=O)N[C@H](CC(C)C)C(=O)N2CCC[C@H]2C(=O)O[C@@H]1C,0.42
CC(=O)N1CCC[C@@H]1C(=O)N(C)[C@H](CC(C)C)C(=O)N[C@@H]1C(=O)N(C)[C@@H](CC(C)C)C(=O)N(C)[C@H](CC(C)C)C(=O)N(C)[C@H](CC(C)C)C(=O)N(C)[C@@H](C)C(=O)N[C@@H](CC(C)C)C(=O)N2CCC[C@@H]2C(=O)O[C@@H]1C,2.1
CC(=O)N1CCC[C@H]1C(=O)N(C)[C@@H](CC(C)C)C(=O)N[C@@H]1C(=O)N(C)[C@H](CC(C)C)C(=O)N(C)[C@@H](CC(C)C)C(=O)N(C)[C@H](CC(C)C)C(=O)N(C)[C@@H](C)C(=O)N[C@H](CC(C)C)C(=O)N2CCC[C@@H]2C(=O)O[C@@H]1C,4
CC(=O)N1CCC[C@@H]1C(=O)N(C)[C@@H](CC(C)C)C(=O)N[C@@H]1C(=O)N(C)[C@@H](CC(C)C)C(=O)N[C@@H](CC(C)C)C(=O)N[C@H](CC(C)C)C(=O)N(C)[C@H](C)C(=O)N[C@H](CC(C)C)C(=O)N2CCC[C@H]2C(=O)O[C@@H]1C,0.13
CC(=O)N1CCC[C@@H]1C(=O)N(C)[C@H](CC(C)C)C(=O)N[C@@H]1C(=O)N(C)[C@@H](CC(C)C)C(=O)N(C)[C@H](CC(C)C)C(=O)N(C)[C@H](CC(C)C)C(=O)N(C)[C@@H](C)C(=O)N[C@H](CC(C)C)C(=O)N2CCC[C@@H]2C(=O)O[C@@H]1C,3.2
CC(=O)N1CCC[C@H]1C(=O)N(C)[C@H](CC(C)C)C(=O)N[C@@H]1C(=O)N[C@@H](CC(C)C)C(=O)N[C@@H](CC(C)C)C(=O)N[C@@H](CC(C)C)C(=O)N(C)[C@@H](C)C(=O)N[C@H](CC(C)C)C(=O)N2CCC[C@@H]2C(=O)O[C@@H]1C,0.51
CC(=O)N[C@@H]1C(=O)N2CCC[C@H]2C(=O)N(C)[C@H](CC(C)C)C(=O)N[C@@H](CC(C)C)C(=O)N[C@@H](CC(C)C)C(=O)N[C@@H](CC(C)C)C(=O)N[C@H](C)C(=O)N[C@@H](CC(C)C)C(=O)N2CCC[C@@H]2C(=O)O[C@@H]1C,0.069
CC(=O)N1CCC[C@H]1C(=O)N(C)[C@H](CC(C)C)C(=O)N[C@@H]1C(=O)N[C@@H](CC(C)C)C(=O)N(C)[C@H](CC(C)C)C(=O)N(C)[C@H](CC(C)C)C(=O)N[C@H](C)C(=O)N[C@@H](CC(C)C)C(=O)N2CCC[C@@H]2C(=O)O[C@@H]1C,4.7

Excerpt, the opening 3 entries:

{"smiles": "CC(=O)N1CCC[C@H]1C(=O)N(C)[C@H](CC(C)C)C(=O)N[C@@H]1C(=O)N[C@H](CC(C)C)C(=O)N[C@@H](CC(C)C)C(=O)N[C@@H](CC(C)C)C(=O)N(C)[C@@H](C)C(=O)N[C@@H](CC(C)C)C(=O)N2CCC[C@H]2C(=O)O[C@@H]1C", "PAMPA (10^-6 cm/s)": "1.3"}
{"smiles": "CC(=O)N1CCC[C@@H]1C(=O)N(C)[C@H](CC(C)C)C(=O)N[C@@H]1C(=O)N(C)[C@@H](CC(C)C)C(=O)N[C@@H](CC(C)C)C(=O)N(C)[C@@H](CC(C)C)C(=O)N[C@@H](C)C(=O)N[C@H](CC(C)C)C(=O)N2CCC[C@@H]2C(=O)O[C@@H]1C", "PAMPA (10^-6 cm/s)": "0.23"}
{"smiles": "CC(=O)N1CCC[C@H]1C(=O)N(C)[C@@H](CC(C)C)C(=O)N[C@@H]1C(=O)N[C@H](CC(C)C)C(=O)N[C@@H](CC(C)C)C(=O)N(C)[C@H](CC(C)C)C(=O)N(C)[C@@H](C)C(=O)N[C@@H](CC(C)C)C(=O)N2CCC[C@H]2C(=O)O[C@@H]1C", "PAMPA (10^-6 cm/s)": "4.1"}

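Lipid, pH, incubation time, direction and concentration are not recorded in the data file. Other peptides of the study may be missing here. Peptides that the database sets to -10, its floor, are left out.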